Data on nine molecules can be found in patent US6531481B2 (priority 1998, dated 2003).

Chains of the proteins cited; added tags and fusions are not shown. Lines headed by an entry give the natural chain unless they say otherwise; changes in a name come on top. Residues count along the entry.
UniProt P33535, whole entry: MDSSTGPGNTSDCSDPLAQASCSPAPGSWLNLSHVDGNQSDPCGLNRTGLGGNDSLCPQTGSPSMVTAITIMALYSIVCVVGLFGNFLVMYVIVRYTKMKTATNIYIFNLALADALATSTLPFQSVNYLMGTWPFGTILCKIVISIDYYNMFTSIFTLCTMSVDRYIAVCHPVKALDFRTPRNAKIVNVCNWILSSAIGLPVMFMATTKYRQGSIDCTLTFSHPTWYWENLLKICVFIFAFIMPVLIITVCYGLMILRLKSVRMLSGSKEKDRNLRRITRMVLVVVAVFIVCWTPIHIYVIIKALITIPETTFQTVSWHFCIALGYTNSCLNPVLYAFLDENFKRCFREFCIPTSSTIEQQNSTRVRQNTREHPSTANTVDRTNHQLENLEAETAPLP
UniProt P41144: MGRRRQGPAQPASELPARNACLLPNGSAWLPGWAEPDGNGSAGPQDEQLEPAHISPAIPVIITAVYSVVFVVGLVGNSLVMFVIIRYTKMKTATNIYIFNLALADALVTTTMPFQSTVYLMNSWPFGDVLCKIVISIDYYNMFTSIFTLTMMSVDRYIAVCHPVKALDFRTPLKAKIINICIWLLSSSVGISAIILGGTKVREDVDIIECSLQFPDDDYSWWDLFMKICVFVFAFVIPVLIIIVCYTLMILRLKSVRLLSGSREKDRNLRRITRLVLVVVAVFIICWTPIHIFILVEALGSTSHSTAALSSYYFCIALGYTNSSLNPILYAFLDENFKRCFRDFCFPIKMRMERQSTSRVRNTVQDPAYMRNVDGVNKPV
UniProt P33533, whole entry: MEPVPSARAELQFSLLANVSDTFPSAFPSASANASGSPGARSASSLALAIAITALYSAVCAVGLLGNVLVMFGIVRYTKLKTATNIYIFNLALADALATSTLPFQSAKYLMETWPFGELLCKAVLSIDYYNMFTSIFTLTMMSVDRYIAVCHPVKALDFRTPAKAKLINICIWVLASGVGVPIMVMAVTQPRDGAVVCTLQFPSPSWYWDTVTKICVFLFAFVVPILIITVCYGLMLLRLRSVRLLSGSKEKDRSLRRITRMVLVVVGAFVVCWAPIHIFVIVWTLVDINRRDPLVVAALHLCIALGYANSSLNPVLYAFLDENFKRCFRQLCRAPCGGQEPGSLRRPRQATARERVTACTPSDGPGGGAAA
UniProt A0ACM8Q262, 1-400: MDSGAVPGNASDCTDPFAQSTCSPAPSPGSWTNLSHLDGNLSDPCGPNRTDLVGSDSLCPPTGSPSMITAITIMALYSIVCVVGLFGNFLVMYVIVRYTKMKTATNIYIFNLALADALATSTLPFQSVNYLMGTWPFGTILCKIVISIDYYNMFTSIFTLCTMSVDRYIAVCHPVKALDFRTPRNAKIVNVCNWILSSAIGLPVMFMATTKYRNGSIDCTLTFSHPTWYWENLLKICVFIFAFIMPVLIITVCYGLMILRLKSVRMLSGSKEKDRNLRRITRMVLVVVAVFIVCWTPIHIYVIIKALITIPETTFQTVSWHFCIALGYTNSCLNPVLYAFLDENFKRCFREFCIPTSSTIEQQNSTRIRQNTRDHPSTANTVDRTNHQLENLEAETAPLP

Like-named read-outs stand apart in the source and are kept apart here.

Experiment [1] concerns the target mu opioid receptor (Rattus norvegicus, UniProt P33535).
For experiment [2], the target named is T1, kappa opioid receptor (Cavia porcellus, UniProt P41144). The conditions noted are these: for Ki: read-out: Ki [3H]U69,593 (κ).
The target of experiment [3] is T1, kappa opioid receptor. The arrangement: from tissue. The note with it: cited from earlier work.
Experiment [4] has as its target T2, delta opioid receptor (Rattus norvegicus, UniProt P33533). The arrangement: using rat brain membranes prepared as described; from tissue; host or cells: rat brain membranes. The note with it: cited from earlier work.
Experiment [5] deals with mu opioid receptor (Cavia porcellus, UniProt A0ACM8Q262). Briefly: Inhibition of DAMGO-stimulated [35S]GTPγS binding in guinea pig caudate. The note with it: [35S]GTPγS assay. It is filed as biochemical. The method, then:
[^35S]-GTP-γ-S Binding Assay. Ten frozen guinea pig brains (Harlan Bioproducts for Science, Inc, Indianapolis, Ind.) were thawed, and the caudate putamen were dissected and homogenized in buffer A (3 mL/caudate) (Buffer A=10 mM Tris-HCl, pH 7.4 at 4° C. containing 4 μg/mL leupeptin, 2 μg/mL chymostatin, 10 μg/mL bestatin, and 100 μg/mL bacitracin) using a polytron (Brinkman) at setting 6 until a uniform suspension was achieved. The homogenate was centrifulged at 30,000×g for 10 min at 4° C. and the supernatant discarded. The membrane pellets were washed by resuspension and centrifugation twice more with fresh buffer A, aliquotted into microfuge tubes, and centrifuged in a Tomy refrigerated microfuge (model MTX 150) at maximum speed for 10 min. The supernatants were discarded, and the pellets were stored at −80° C. until assayed.
For the [^35S]GTP-γ-S binding assay, all drug dilutions were made up in buffer B [50 mM TRIS-HCl, pH 7.7/0.1% BSA]. […] Bound radioactivity was counted by liquid scintillation spectroscopy using a Taurus (Micromedic) liquid scintillation counter at 98% efficiency after an overnight extraction in 5 mL Cytoscint scintillation fluid. Nonspecific binding was determined in the presence of 10 μM GTP-γ-S. Assays were performed in triplicate, and each experiment was performed at least 3×.
Data Analysis. […] The Ki values were then determined using the equation: IC50/1+([L]Kd). […]

For experiment [6], the target named is T2, delta opioid receptor. The experiment in a line: biochemical.

Take `CC1CN(C[C@H](Cc2ccccc2)NC(=O)CCc2ccc(O)cc2)CCC1(C)c1cccc(O)c1` (stereo partly drawn) [Compound 27]: on mu opioid receptor [1], the “slope factor (-nH), value in parentheses, [3H]DAMGO” value (shortened to “slope factor (-nH) … [3H]DAMGO”) was “(0.89 ± 0.09)”. Moreover, at kappa opioid receptor [2], the “slope factor (-nH), value in parentheses, [3H]U69,593” value is “(0.86 ± 0.04)”; the μ/κ is 0.17; the Ki is 54.6 ± 3.5 nM.

On kappa opioid receptor [2], “(+)-N-[trans-4-phenyl-2-butenyl]-(3R,4R)-dimethyl-4-(3-hydroxyphenyl)piperidine [Compound 5a]” returned a δ/κ of 2.6 and a μ/κ of 0.006. Also, on kappa opioid receptor [3], the “slope factor (-nH) [3H]U69,593” value is recorded as “(0.52 ± 0.07)”. Further, the Ki on kappa opioid receptor [3] (read-out: Ki [3H]U69,593 (κ)) is 122 ± 11.9 nM. Besides, the “slope factor (-nH) [3H]DADLE” value at delta opioid receptor [4] was “(0.75 ± 0.09)”. The Ki at delta opioid receptor [4] (read-out: Ki [3H]DADLE (δ)) was 322 ± 38.1 nM.

Turning to “N-{(2′S)-[3-(4-Hydroxyphenyl)propanamido]-2′-cyclohexylethyl}-(3R,4R)-dimethyl-4-(3-hydroxyphenyl)piperidine [Compound 26]”, at mu opioid receptor [1], the “slope factor (-nH) … [3H]DAMGO” value is on record as “(0.84 ± 0.08)”. For the same molecule, the Ki on mu opioid receptor [1] (read-out: Ki [3H]DAMGO (μ)) was 234 ± 25.2 nM. Moreover, on kappa opioid receptor [2], the “slope factor (-nH), value in parentheses, [3H]U69,593” value was “(0.79 ± 0.04)”; the μ/κ is given as 2.8; the Ki came out at 83.1 ± 5.7 nM.

As to `CC(C)C[C@@H](CN1CCC(C)(c2cccc(O)c2)C(C)C1)NC(=O)CCc1ccc(O)cc1` (stereo partly drawn) [Compound 24], the “slope factor (-nH) … [3H]DAMGO” value at mu opioid receptor [1] is given as “(0.91 ± 0.16)”. In addition, at kappa opioid receptor [2], the “slope factor (-nH), value in parentheses, [3H]U69,593” value is “(0.78 ± 0.05)”; the μ/κ came out at 4.5; the Ki is 89.3 ± 7.03 nM.

Turning to `O=C1CC[C@@]2(O)[C@H]3Cc4ccc(O)c5c4[C@@]2(CCN3CC2CC2)[C@H]1O5` [naltrexone], on mu opioid receptor [5], the “slope factor (−nH / N), DAMGO” value was “(1.03 ± 0.22)”.

With `CC(C)[C@@H](CN1CC[C@@](C)(c2cccc(O)c2)[C@@H](C)C1)NC(=O)CCc1ccc(O)cc1` [compound 8], at delta opioid receptor [6], the Ki is greater than 5700 nM.

Consider `CCC(C)[C@@H](CN1CC[C@@](C)(c2cccc(O)c2)[C@@H](C)C1)NC(=O)CCc1ccc(O)cc1` (stereo partly drawn) [Compound 25], for which the “slope factor (-nH) … [3H]DAMGO” value at mu opioid receptor [1] is “(0.91 ± 0.06)”. Besides, on kappa opioid receptor [2], the “slope factor (-nH), value in parentheses, [3H]U69,593” value is on record as “(0.87 ± 0.02)” and the μ/κ is recorded as 47.

Take `CN1CCC2(c3cccc(O)c3)Cc3ccccc3CC2(C)C1` (racemic) [Compound 7, (±)-1,2,3,4,4a,5,10,10a-octahydro-4a-(3-hydroxyphenyl)-2,10a-dimethylbenzo-[g]isoquinoline]: the “slope factor (-nH) … [3H]DAMGO” value on mu opioid receptor [1] was “(1.02 ± 0.07)”. For the same molecule, the “slope factor (-nH), value in parentheses, [3H]U69,593” value on kappa opioid receptor [2] is listed as “(0.87 ± 0.06)”.

Take `CC1C2CCCC1(c1cccc(O)c1)CCN2CCc1ccccc1` (stereo not drawn) [Compound 5c, 5-(3-Hydroxyphenyl)-9β-methyl-2-(2′-phenylethyl)-2-azabicyclo[3.3.1]nonane]: at kappa opioid receptor [2], the Ki was found to be 14.5 ± 0.99 nM.
